Measurements as given in PMC3800051 (Bioorganic & medicinal chemistry letters, 2009).

Amino acid sequences for entries named in this document (tags omitted). A change or cut given only in a name is not applied to a line headed by its entry.
UniProt O14939: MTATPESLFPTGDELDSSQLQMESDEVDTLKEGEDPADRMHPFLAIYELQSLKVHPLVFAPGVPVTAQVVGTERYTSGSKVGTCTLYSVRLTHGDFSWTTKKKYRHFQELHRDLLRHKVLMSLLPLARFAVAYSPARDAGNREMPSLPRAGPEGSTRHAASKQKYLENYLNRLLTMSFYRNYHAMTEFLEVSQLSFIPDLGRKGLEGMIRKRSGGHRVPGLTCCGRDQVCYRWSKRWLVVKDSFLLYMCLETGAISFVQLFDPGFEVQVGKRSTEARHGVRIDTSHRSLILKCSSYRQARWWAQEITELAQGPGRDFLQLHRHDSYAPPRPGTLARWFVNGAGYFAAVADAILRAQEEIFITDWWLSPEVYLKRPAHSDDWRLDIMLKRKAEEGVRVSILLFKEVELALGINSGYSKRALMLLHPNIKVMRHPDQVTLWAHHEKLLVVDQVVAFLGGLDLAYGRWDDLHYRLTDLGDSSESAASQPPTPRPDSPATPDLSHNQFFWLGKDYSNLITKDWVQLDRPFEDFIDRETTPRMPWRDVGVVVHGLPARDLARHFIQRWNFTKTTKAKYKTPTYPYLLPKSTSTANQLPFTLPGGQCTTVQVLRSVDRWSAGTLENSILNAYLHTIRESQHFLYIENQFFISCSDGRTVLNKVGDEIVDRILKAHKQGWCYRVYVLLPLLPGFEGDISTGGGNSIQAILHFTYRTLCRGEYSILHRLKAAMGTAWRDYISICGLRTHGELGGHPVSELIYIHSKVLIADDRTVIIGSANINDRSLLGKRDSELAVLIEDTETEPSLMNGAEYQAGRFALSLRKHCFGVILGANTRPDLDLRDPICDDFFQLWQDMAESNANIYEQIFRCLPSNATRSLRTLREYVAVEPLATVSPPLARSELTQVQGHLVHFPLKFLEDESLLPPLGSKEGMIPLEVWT

Key:
[1] = molecular target: PLD2 (Homo sapiens, UniProt O14939); details: recently reported; cited from earlier work
[2] = molecular target: T1, PLD1 (Homo sapiens, UniProt Q13393); assay: biochemical
T1 sequence (Q13393 1-1074): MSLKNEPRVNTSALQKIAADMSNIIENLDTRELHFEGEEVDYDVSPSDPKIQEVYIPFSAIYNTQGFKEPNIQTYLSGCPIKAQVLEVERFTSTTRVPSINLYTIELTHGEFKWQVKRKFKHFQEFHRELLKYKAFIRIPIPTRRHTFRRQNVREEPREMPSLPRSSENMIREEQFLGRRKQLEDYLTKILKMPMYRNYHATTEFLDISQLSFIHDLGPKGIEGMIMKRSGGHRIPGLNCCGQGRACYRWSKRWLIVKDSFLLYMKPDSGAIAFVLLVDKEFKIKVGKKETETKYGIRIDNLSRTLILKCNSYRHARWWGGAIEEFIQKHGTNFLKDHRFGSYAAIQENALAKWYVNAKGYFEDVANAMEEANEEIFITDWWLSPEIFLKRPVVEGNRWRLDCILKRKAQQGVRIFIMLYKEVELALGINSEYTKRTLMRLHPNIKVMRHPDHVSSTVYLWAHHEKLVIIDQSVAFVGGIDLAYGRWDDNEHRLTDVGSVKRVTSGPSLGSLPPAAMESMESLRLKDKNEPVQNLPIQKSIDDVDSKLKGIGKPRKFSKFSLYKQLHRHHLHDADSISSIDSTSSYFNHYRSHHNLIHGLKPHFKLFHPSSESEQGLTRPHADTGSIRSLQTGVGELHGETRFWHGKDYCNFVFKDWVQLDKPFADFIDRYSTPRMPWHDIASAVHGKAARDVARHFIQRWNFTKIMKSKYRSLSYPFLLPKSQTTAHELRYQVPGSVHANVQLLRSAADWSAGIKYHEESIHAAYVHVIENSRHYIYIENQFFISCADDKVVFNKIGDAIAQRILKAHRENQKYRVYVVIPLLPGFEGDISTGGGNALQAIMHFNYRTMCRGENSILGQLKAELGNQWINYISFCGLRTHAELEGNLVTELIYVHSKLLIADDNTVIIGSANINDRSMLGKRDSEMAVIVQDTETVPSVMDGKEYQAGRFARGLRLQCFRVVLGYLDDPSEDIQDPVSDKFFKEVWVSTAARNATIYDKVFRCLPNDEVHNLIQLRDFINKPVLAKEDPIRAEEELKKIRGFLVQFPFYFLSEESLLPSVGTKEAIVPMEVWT

[3] = molecular target: T1, PLD1; details: cellular assay, Calu-1 cells
[4] = molecular target: T1, PLD1; details: cell based assay; cited from earlier work

## O=C(NCCN1CCC2(CC1)C(=O)NCN2c1ccccc1)c1ccc2ccccc2c1 [Compound 3]
[1]
  PLD2 selectivity versus PLD1: ~ ninefold

## C[C@@H](CN1CCC2(CC1)C(=O)NCN2c1ccccc1)NC(=O)c1ccc2ccccc2c1 [Compound 10a]
[2]
  pIC50: 6.52
[3]
  Increase of PLD1 inhibitory activity relative to 3: 40 fold

## C[C@@H](CN1CCC(n2c(=O)[nH]c3cc(Br)ccc32)CC1)NC(=O)[C@H]1C[C@@H]1c1ccccc1 [Compound 2]
[4]
  Selectivity for PLD1 over PLD2: > 1700 fold

pIC50: −log10 of the molar value.
